A short description of this data set: Particle size by DLS before and after ultrasonication (Example 2). The conditions noted are these: before ultrasonication.

Consider α-lactalbumin, for which the mean size is, setting by setting: (pH 11) 6.5±0.1 nm; (pH adjusted from 11 to 7) 15.5±3.6 nm.

These data come from patent publication US20250288536A1, “PROTEIN PARTICLES INCLUDING AN ACTIVE AGENT AND METHODS OF MAKING AND USING THE SAME” (Dairy Mangement Inc., priority 2022, published 2025).
